# AlphaSeq binding of Ab-14 light chain variants to a spike HR2 peptide

Values reported by Engelhart et al. 2022, doi:10.1038/s41597-022-01779-4 (FLAb copy).

Target peptide (SARS-CoV-2 spike, HR2 region): PDVDLGDISGINAS

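The starting antibody came from a phage panning campaign against this peptide. Variants in AAYL50 differ from the parent at up to three CDR positions; double and triple changes were sampled at random. AlphaSeq pools MATa yeast showing the antibodies with MATalpha yeast showing the peptide. Mating (16 h, 30 °C) was followed by selection of diploids and sequencing of their barcodes. Scores were corrected for input abundance and mapped to Kd with protein pairs of known affinity run in the same pool. Mating was done three times.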

The variants keep the heavy chain, the linker and the frameworks of Ab-14 (scFv order VH, a (GGGGS)3 linker, VL).
VH: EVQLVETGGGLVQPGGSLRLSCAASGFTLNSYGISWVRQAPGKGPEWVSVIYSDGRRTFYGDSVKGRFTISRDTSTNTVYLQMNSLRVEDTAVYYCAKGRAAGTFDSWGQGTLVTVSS
VL: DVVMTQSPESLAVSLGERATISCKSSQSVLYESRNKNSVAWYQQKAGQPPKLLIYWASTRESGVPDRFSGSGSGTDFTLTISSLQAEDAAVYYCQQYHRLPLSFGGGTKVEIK

Sequences are complete VL domains. Scale: log10 of Kd in nM, estimated from mating counts; low values are strong binders. Averages over replicates are reported, and they cover detected replicates only. "ND" marks a missing value. The strain was present, yet no cells mated with the target were sequenced in that replicate, which points to weak or no binding.

VL | replicates, log10 nM | mean log10 Kd (nM) | control signals
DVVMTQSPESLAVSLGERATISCKSSQSVLQESRNKNSVAWYQQKAGQPPKLLIYWASTGESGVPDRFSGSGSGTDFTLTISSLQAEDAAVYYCQQPHRLPLSFGGGTKVEIK | ND / ND / ND | ND | 2 of 9 (4.03)
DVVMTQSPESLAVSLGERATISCKSSQSVLYESRNKNNVAWYQQKAGQPPKLLIYWASERESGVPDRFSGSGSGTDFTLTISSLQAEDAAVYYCQFYHRLPLSFGGGTKVEIK | 1.59 / 1.50 / 1.65 | 1.58 | 4 of 9 (4.53)
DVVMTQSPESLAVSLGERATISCKFSQSVLYESRNKNSVAWYQQKAGQPPKLLIYWAVTRESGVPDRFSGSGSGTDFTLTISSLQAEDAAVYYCQQYHRPPLSFGGGTKVEIK | 1.13 / 1.24 / 1.03 | 1.13 | 1 of 9 (4.78)
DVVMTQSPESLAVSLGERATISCKSSQSVLYESRNKNSVAWYQQKAGQPPKLLIYWASTREEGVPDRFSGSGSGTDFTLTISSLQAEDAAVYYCTQYHTLPLSFGGGTKVEIK | 4.25 / ND / ND | 4.25 | 5 of 9 (4.20)
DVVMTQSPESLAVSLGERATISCYSSQSVLYESRNKNNVAWYQQKAGQPPKLLIYWASTRESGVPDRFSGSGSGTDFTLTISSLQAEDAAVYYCQQYERLPLSFGGGTKVEIK | 0.70 / 0.87 / 0.86 | 0.81 | 2 of 9 (4.19)
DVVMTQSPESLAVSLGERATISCKSSQRVLYESRNKNSVAWYQQKAGQPPKLLIYWASTRESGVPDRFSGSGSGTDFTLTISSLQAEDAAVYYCQQYHALPLCFGGGTKVEIK | 1.72 / 1.88 / 1.86 | 1.82 | 1 of 9 (5.47)
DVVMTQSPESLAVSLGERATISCKSSQSVLFESRNKNSVAWYQQKAGQPPKLLIYWASTRESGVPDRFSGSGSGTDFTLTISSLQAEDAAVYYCQQYHRLMLSFGGGTKVEIK | 1.82 / 1.76 / 1.96 | 1.85 | 2 of 9 (3.43)
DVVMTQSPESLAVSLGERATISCQSSQSVLYESRNKNSVAWYQQKAGQPPKLLIYWAATRESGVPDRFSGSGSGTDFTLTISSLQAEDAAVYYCQQYHRMPLSFGGGTKVEIK | 1.89 / 1.86 / 2.58 | 2.11 | 0 of 9
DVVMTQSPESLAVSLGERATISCKSSQSVLYESRNKNSVRWYQQKAGQPPKLLIYWASTGESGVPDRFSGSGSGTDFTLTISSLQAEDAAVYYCQQYCRLPLSFGGGTKVEIK | ND / ND / ND | ND | 2 of 9 (4.06)
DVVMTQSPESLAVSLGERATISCKSSMSVLYESRNKNDVAWYQQKAGQPPKLLIYWASTRESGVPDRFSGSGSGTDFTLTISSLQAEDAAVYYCQQYHALPLSFGGGTKVEIK | 1.63 / 1.84 / 2.06 | 1.84 | 0 of 9
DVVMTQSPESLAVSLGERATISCKNSVSVLYESRNINSVAWYQQKAGQPPKLLIYWASTRESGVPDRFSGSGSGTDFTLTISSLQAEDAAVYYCQQYHRLPLSFGGGTKVEIK | 1.85 / 1.50 / 2.06 | 1.81 | 1 of 9 (3.66)
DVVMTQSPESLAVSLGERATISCKASQSVLYESRNKNRVGWYQQKAGQPPKLLIYWASTRESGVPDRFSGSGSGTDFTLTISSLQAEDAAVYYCQQYHRLPLSFGGGTKVEIK | ND / ND / ND | ND | 1 of 9 (3.15)
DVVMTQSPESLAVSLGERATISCKSMQSVLYEDRNKNSVAWYQQKAGQPPKLLIYWASTRESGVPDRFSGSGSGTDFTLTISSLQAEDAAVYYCQQYHRLPLSFGGGTKVEIK | ND / 3.47 / ND | 3.47 | 0 of 9
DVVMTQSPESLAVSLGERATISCKSSMSNNYESRNKNSVAWYQQKAGQPPKLLIYWASTRESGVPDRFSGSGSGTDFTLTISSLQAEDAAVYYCQQYHRLPLSFGGGTKVEIK | 2.26 / 2.34 / 2.20 | 2.26 | 3 of 9 (4.66)
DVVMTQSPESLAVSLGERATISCKSSQSVRYESRNYHSVAWYQQKAGQPPKLLIYWASTRESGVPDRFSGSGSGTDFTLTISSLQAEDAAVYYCQQYHRLPLSFGGGTKVEIK | ND / ND / ND | ND | 0 of 9
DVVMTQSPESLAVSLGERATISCKSSQSVLYESRNKCSKAWYQQKAGQPPKLLIYWASERESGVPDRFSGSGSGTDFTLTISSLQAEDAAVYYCQQYHRLPLSFGGGTKVEIK | ND / ND / ND | ND | 1 of 9 (3.05)
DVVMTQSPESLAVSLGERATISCKHSQGVLYESRNKRSVAWYQQKAGQPPKLLIYWASTRESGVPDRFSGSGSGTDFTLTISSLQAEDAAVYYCQQYHRLPLSFGGGTKVEIK | 1.50 / 1.70 / 1.66 | 1.62 | 1 of 9 (2.60)
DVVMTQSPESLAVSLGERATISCKSSQMVLYESRNKNSVAWYQQKAGQPPKLLIYWASTREKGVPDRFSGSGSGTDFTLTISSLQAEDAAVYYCQQYHRLPLFFGGGTKVEIK | 3.63 / 2.60 / 2.55 | 2.93 | 1 of 9 (2.31)
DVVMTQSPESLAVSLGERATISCKYSQSVLYKSRNKNSVAWYQQKAGQPPKLLIYWASTRESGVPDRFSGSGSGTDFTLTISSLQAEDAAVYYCQQYHGLPLSFGGGTKVEIK | 1.49 / 1.83 / 1.81 | 1.71 | 2 of 9 (3.57)

The last 2 entries again:

| VL | replicates, log10 nM | mean log10 Kd (nM) | control signals |
|---|---|---|---|
| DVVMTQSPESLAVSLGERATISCKSSQMVLYESRNKNSVAWYQQKAGQPPKLLIYWASTREKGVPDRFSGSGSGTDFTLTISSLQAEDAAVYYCQQYHRLPLFFGGGTKVEIK | 3.63 / 2.60 / 2.55 | 2.93 | 1 of 9 (2.31) |
| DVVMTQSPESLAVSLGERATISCKYSQSVLYKSRNKNSVAWYQQKAGQPPKLLIYWASTRESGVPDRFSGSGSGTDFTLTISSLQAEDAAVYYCQQYHGLPLSFGGGTKVEIK | 1.49 / 1.83 / 1.81 | 1.71 | 2 of 9 (3.57) |

Three control strains display no target. For library AAYL50, 18% of the pairings with them gave a signal, with a median of 4.19 and one signal in twenty below 2.99, so weak values seen in few replicates may be background. The control count says in how many pairings with the empty strains this scFv gave a signal, with their mean in brackets. Parent in this assay: reference entry 0.65, copy in this library 1.68.